Experiments:
Phakopsora pachyrhizi [1] = test: Protective control of soybean rust on soybeans, inoculation 2 days after treatment (PHAKPA P2); type: in vivo; conditions: soybean seedlings inoculated 2 days after treatment, strain with F129L in cytochrome b, % diseased leaf area, untreated controls usually higher than 85 %; for PHAKPA Disease level (%) P2 at 4 ppm: 4 ppm spray; for PHAKPA Disease level (%) P2 at 16 ppm: 16 ppm spray
Phakopsora pachyrhizi [2] = test: Protective control of soybean rust on soybeans, inoculation six days after treatment (PHAKPA P6); type: in vivo; conditions: soybean seedlings inoculated six days after treatment, strain with F129L in cytochrome b, % diseased leaf area, untreated controls usually higher than 85 %; for PHAKPA Disease level (%) P6 at 4 ppm: 4 ppm spray; for PHAKPA Disease level (%) P6 at 16 ppm: 16 ppm spray

Row | SMILES | PHAKPA Disease level (%) P2 at 4 ppm (Phakopsora pachyrhizi [1]) | PHAKPA Disease level (%) P2 at 16 ppm (Phakopsora pachyrhizi [1]) | PHAKPA Disease level (%) P6 at 4 ppm (Phakopsora pachyrhizi [2]) | PHAKPA Disease level (%) P6 at 16 ppm (Phakopsora pachyrhizi [2])
1 | CNC(=O)/C(=N/OC)c1cccc(C)c1CO/N=C(\C)c1cccc(C(F)(F)F)n1 [Example 2] | 67% | 17% | 59% | 27%
2 | CO/N=C(/C(=O)OC)c1cccc(C)c1CO/N=C(\C)c1cc(C(F)(F)F)ccn1 [Example 4, Methyl (2E)-2-methoxyimino-2-[3-methyl-2-[[(E)-1-[4-(trifluoromethyl)-2-pyridyl]ethylideneamino]oxymethyl]phenyl]acetate] | 3% | 0% | 4% | 0%
3 | CNC(=O)/C(=N/OC)c1cccc(C)c1CO/N=C(\C)c1cc(C(F)(F)F)ccn1 [Example 5, (2E)-2-methoxyimino-N-methyl-2-[3-methyl-2-[[(E)-1-[4-(trifluoromethyl)-2-pyridyl]-ethylideneamino]oxymethyl]phenyl]acetamide] | 1% | 0% | 2% | 0%
4 | CO/N=C(/C(=O)OC)c1cccc(C)c1CO/N=C(\C)c1cccc(OC)n1 [Example 6] | 60% | 32% | 73% | 67%
5 | CO/N=C(/C(=O)OC)c1cccc(C)c1CO/N=C(\C)c1cccc(C(F)F)n1 [Example 9] | 100% | 50% | 90% | 47%
6 | CNC(=O)/C(=N/OC)c1cccc(C)c1CO/N=C(\C)c1cccc(C(F)F)n1 [Example 10] | 73% | 7% | 87% | 11%
7 | CO/N=C(/C(=O)OC)c1cccc(C)c1CO/N=C(\C)c1cc(-c2ccc(F)cc2)sn1 [Example 11, Methyl (2E)-2-[2-[[(E)-1-[5-(4-fluorophenyl)isothiazol-3-yl]ethylideneamino]oxymethyl]-3-methyl-phenyl]-2-methoxyimino-acetate] | 50% | 8% | 37% | 7%
8 | CNC(=O)/C(=N/OC)c1cccc(C)c1CO/N=C(\C)c1cc(-c2ccc(F)cc2)sn1 [Example 12, (2E)-2-[2-[[(E)-1-[5-(4-Fluorophenyl)isothiazol-3-yl]ethylideneamino]oxymethyl]-3-methyl-phenyl]-2-methoxyimino-N-methyl-acetamide] | 73% | 12% | 50% | 19%
9 | CO/N=C(/C(=O)OC)c1cccc(C(F)(F)F)c1CO/N=C(\C)c1cccc(C(F)(F)F)n1 [Example 13] | 93% | 90% | 87% | 83%
10 | CO/N=C(/C(=O)OC)c1cccc(C)c1CO/N=C(\C)c1cc(-c2ccc(F)cc2)on1 [Example 14] | 97% | 77% | 87% | 65%
11 | CNC(=O)/C(=N/OC)c1cccc(C)c1CO/N=C(\C)c1cc(-c2ccc(F)cc2)on1 [Example 15] | 53% | 4% | 63% | 13%
12 | CO/N=C(/C(=O)OC)c1cccc(C)c1CO/N=C(\C)c1cc(-c2ccc(Cl)cc2)on1 [Example 18] | 93% | 73% | 90% | 83%
13 | CO/N=C(/C(=O)OC)c1cccc(C)c1CO/N=C(\C)c1cc(-c2ccccc2)on1 [Example 21] | 87% | 15% | 90% | 17%
14 | CNC(=O)/C(=N/OC)c1cccc(C)c1CO/N=C(\C)c1cc(-c2cccc(C(F)(F)F)c2)on1 [Example 22, (2E)-2-Methoxyimino-N-methyl-2-[3-methyl-2-[[(E)-1-[5-[3-(trifluoromethyl)phenyl]-isoxazol-3-yl]ethylideneamino]oxymethyl]phenyl]acetamide] | 73% | 33% | 67% | 26%
15 | CNC(=O)/C(=N/OC)c1cccc(C)c1CO/N=C(\C)c1cc(-c2ccccc2)on1 [Example 23] | 47% | 5% | 80% | 7%
16 | CO/N=C(/C(=O)OC)c1cccc(C)c1CO/N=C(\C)c1ncccc1C(F)F [Example 24] | 87% | 33% | 93% | 53%
17 | CO/N=C(/C(=O)OC)c1cccc(C)c1CO/N=C(\C)c1cc(C)ccn1 [Example 25] | 93% | 57% | 97% | 73%
18 | CO/N=C(/C(=O)OC)c1cccc(C)c1CO/N=C(\C)c1ncccc1C(F)(F)F [Example 27, Methyl (2E)-2-methoxyimino-2-[3-methyl-2-[[(E)-1-[3-(trifluoromethyl)-2-pyridyl]-ethylideneamino]oxymethyl]phenyl]acetate] | 94% | 24% | 96% | 32%
19 | CNC(=O)/C(=N/OC)c1cccc(C)c1CO/N=C(\C)c1ncccc1C(F)(F)F [Example 28, (2E)-2-methoxyimino-N-methyl-2-[3-methyl-2-[[(E)-1-[3-(trifluoromethyl)-2-pyridyl]-ethylideneamino]oxymethyl]phenyl]acetamide] | 27% | 1% | 44% | 9%
20 | CO/N=C(\C)c1ccnc(/C(C)=N/OCc2c(C)cccc2/C(=N\OC)C(=O)OC)c1 [Example 29, Methyl (2E)-2-methoxyimino-2-[2-[[(E)-1-[4-[(E)-N-methoxy-C-methyl-carbonimidoyl]-2-pyridyl]ethylideneamino]oxymethyl]-3-methyl-phenyl]acetate] | 36% | 7% | 58% | 21%
21 | CNC(=O)/C(=N/OC)c1cccc(C)c1CO/N=C(\C)c1cc(/C(C)=N/OC)ccn1 [Example 30, (2E)-2-Methoxyimino-2-[2-[[(E)-1-[4-[(E)-N-methoxy-C-methyl-carbonimidoyl]-2-pyridyl]ethylideneamino]oxymethyl]-3-methyl-phenyl]-N-methyl-acetamide] | 19% | 2% | 45% | 13%
22 | CO/N=C(\C)c1cccc(/C(C)=N/OCc2c(C)cccc2/C(=N\OC)C(=O)OC)n1 [Example 31] | 90% | 67% | 83% | 33%
23 | CNC(=O)/C(=N/OC)c1cccc(C)c1CO/N=C(\C)c1cccc(/C(C)=N/OC)n1 [Example 32] | 70% | 13% | 70% | 20%
24 | CNC(=O)/C(=N/OC)c1cccc(C)c1CO/N=C(\C)c1ncccc1C(F)F [Example 33] | 57% | 4.0% | 78% | 14%
25 | CO/N=C(/C(=O)OC)c1cccc(C)c1CO/N=C(\C)c1cc(C(F)F)ccn1 [Example 34] | 28% | 7% | 26% | 10%
26 | CO/N=C(/C(=O)OC)c1cccc(C)c1CO/N=C(\C)c1ccc(Cl)c(C(F)(F)F)c1 [Example 82] |  | 20% |  | 
